From ChEMBL document CHEMBL4152229, “Synthesis and biological evaluation of 2,6-disubstituted-9H-purine, 2,4-disubstitued-thieno[3,2-d]pyrimidine and -7H-pyrrolo[2,3-d]pyrimidine analogues as novel CHK1 inhibitors” (Eur J Med Chem, 2018)

What was measured:
[1] = biological target: T1, Serine/threonine-protein kinase Chk1 (Homo sapiens) (UniProt O14757); settings: HT-29, 10 uM
T1 sequence (whole entry): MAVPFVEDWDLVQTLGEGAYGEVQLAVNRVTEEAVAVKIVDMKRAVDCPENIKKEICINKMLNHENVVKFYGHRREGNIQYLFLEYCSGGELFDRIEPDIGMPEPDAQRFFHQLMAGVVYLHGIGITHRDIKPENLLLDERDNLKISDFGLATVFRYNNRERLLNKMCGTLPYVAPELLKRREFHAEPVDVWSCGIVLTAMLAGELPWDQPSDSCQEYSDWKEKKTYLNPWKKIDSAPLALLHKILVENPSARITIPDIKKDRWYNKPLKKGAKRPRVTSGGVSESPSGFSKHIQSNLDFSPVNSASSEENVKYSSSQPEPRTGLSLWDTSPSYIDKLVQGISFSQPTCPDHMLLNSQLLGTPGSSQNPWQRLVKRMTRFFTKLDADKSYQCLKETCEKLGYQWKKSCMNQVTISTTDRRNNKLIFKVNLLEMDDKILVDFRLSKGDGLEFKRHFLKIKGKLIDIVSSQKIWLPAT

[2] = biological target: T1, Serine/threonine-protein kinase Chk1 (Homo sapiens); settings: HT-29, 1 uM

Question: For `Fc1ccc(Nc2nc(N3CCOCC3)c3nc[nH]c3n2)cc1`, which RatioGI50 [1] is on record?
Answer: 7

Question: And the RatioGI50 [2]?
Answer: 1.9
